These results are taken from patent US20230263751A1, “Compositions and Methods of Use of beta-hydroxy-beta-methylbutyrate (HMB) and Chemotherapy Agents” (Metabolic Technologies, LLC, priority 2020, published 2023).

This assay has as its system EAC cells. Put plainly: Tumor growth inhibition and morphological evaluation of mice with EAC. Format: in vivo, Balb/c mice (Mus musculus). Particulars: i.p. 9 days, Doxo 1 mg/kg/day, HMB 617.3 mg/kg/day, mean ± SD, n=6; for Body weight variation: weight before inoculation vs day of euthanasia. The method, then:
Female (18 to 23 g weight, 60 days) Balb/c mice (Mus musculus) obtained from controlled reproduction carried out in the sectoral bioterium of the Federal University of Santa Catarina (Brazil), were kept in plastic cages under controlled environmental conditions (12 h light-dark cycle, 25±2° C., relative humidity 60%), receiving commercial feed and water ad libitum.
The moment before the tumor was inoculated, the abdominal circumference was measured. The treatments were administered intraperitoneally for 9 consecutive days. Twenty-four hours after the last treatment, all mice were weighed and their abdominal circumferences measured again. The inhibition (%) of tumour growth was calculated as follow: [(average in waist circumference of the treated group×100)/average in waist circumference of the control group]−100.
In addition, after euthanasia, all ascitic fluid was collected to measure volume and weight. Finally, Balb/c mice (n=12) were chosen at random and kept alive to assess the effects of HMB, Doxo and Doxo+HMB on survival time according to Kaplan and Meier (1958); survival assessments were discontinued after 30 days.

As to `COc1cccc2c1C(=O)c1c(O)c3c(c(O)c1C2=O)C[C@@](O)(C(=O)CO)C[C@@H]3O[C@H]1C[C@H](N)[C@H](O)[C@H](C)O1` [Doxo, doxorubicin], the Ascitic fluid volume is listed as 7.6 ± 1.3^α*** mL and the Body weight variation is listed as 8.8 ± 1.6^α* g.

Turning to `CC(C)(O)CC(=O)O` [HMB, β-hydroxy-β-methylbutyrate], the Ascitic fluid volume is recorded as 10.3 ± 1.3^α** mL and the Body weight variation is given as 8.8 ± 1.4^α* g.
